Results on one compound are retold here after ChEMBL document CHEMBL1135868, “Small ligands interacting with the phosphotyrosine binding pocket of the Src SH2 protein” (Bioorg Med Chem Lett, 2002).

By UniProt entry, the sequences of proteins in these tests, tags left out. Where a name states a change or a piece, a line headed by the entry shows the natural chain unless it says otherwise.
UniProt P12931: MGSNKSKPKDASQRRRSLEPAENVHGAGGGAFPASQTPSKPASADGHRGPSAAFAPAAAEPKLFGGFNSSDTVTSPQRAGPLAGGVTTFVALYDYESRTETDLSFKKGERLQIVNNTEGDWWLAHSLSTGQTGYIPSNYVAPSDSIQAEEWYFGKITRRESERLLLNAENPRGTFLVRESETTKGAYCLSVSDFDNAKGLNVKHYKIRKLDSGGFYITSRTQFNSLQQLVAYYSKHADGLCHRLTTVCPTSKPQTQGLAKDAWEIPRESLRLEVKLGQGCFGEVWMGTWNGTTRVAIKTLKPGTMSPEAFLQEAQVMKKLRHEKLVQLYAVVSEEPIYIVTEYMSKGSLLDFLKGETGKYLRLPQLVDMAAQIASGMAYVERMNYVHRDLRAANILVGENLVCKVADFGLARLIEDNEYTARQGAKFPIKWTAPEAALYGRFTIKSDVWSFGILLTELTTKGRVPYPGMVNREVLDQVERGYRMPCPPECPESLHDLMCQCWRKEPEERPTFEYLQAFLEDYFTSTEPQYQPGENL

The target of the test is Proto-oncogene tyrosine-protein kinase Src (Homo sapiens, UniProt P12931). In words: The compound was evaluated for its binding affinity towards phosphotyrosine binding pocket of Src protein tyrosine kinase SH2 domain.

Usually IC50 stands for the concentration needed to halve the response being measured. Read a low IC50 as greater potency.

SMILES strings stand for the structures.

As for `CCc1ccc(NC(=O)P(=O)(O)O)cc1`, the half-inhibitory concentration (IC50) stood at 4.4 mM.
